The source of these data is patent US20150190461A1, “DOSING INSTRUCTIONS FOR ENDOTOXIN-BINDING LIPOPEPTIDES” (priority 2012, published 2015).

For this data set the following is noted: determined from the half-life for PMB of 13.6; calculation example.

Regarding polymyxin B [PMB], the “PMB clearance of the patient” value is 36 mL/min.
